US6117976

Target: hen egg lysozyme (hen) (UniProt P00698)
Assay: surface plasmon resonance (BIAcore), 2000 RUs lysozyme immobilised, supernatant injected

scFv(D1.3)-calmodulin fusion protein showed a koff of 0.003 s⁻¹.
